From US20190365806A1, “IMMUNOLOGICALLY DISCERNIBLE CELL SURFACE VARIANTS FOR USE IN CELL THERAPY” (UNIVERSITÄT BASEL, priority 2016, published 2019)

Tested on: CD25/Foxp3+ Treg cells
Assay: IL-2 treatment of mice that received WT and Repaired cells
Assay type: in vivo
Settings: IL-2 during the last week of experiment
Text: In vitro activation and electroporation with plasmids encoding sgRNA targeting the Foxp3K276X mutation and a circular plasmid containing a 1 kb wt Foxp3 repair template. Successfully transfected cells are isolated based on GFP expression. Cells are the transferred in vivo for Foxp3 differentiation followed by IL-2 regimen.
No CD25/Foxp3+ T cells are found in mice that received KO cells.

Substance: IL-2: Interleukin-2 treatment during the last week of experiment
- CD25/Foxp3+ Treg cells after additional IL-2 treatment: increased presence of CD25/Foxp3+ Treg cells
